The values below come from patent US20250270190A1, “KIT INHIBITORS” (BLUEPRINT MEDICINES CORPORATION, priority 2022, published 2025).

Chains of the proteins cited; added tags and fusions are not shown. Residues count along the entry.
UniProt P10721, 26-976 V560G/V654A limits assumed: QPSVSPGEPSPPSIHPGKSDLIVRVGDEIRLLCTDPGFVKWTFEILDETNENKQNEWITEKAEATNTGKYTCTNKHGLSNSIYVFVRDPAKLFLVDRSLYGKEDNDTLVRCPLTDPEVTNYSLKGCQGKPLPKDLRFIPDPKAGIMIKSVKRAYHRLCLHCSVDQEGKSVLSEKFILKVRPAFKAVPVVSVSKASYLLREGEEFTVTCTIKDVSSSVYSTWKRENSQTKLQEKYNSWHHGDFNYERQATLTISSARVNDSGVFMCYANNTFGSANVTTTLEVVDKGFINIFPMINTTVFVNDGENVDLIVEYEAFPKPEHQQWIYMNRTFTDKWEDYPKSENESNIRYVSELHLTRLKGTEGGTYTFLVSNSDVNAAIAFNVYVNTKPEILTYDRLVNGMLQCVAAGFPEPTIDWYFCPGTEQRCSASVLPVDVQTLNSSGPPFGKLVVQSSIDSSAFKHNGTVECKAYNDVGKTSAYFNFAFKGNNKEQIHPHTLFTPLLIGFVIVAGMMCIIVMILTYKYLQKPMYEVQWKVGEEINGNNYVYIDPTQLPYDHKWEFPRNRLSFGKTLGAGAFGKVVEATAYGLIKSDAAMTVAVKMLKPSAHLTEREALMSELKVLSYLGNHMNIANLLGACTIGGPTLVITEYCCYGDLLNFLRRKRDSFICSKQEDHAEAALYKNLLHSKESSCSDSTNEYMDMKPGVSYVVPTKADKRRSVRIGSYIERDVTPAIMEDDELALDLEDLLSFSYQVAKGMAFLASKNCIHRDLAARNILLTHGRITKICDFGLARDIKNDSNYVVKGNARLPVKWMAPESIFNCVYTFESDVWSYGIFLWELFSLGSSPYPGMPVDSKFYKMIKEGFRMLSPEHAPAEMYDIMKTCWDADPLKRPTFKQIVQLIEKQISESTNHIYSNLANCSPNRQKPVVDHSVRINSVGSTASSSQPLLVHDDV

The target of the assay is c-kit autophosphorylation (Phospho c-Kit Tyr721) in HMC 1.1 (exon 11/13) cells, V654A (Homo sapiens, UniProt P10721, V560G/V654A). Briefly: pKIT Meso Scale Discovery (MSD) assay, inhibition of autophosphorylation of KIT, HMC1.1_V654A. Type of assay: cell-based. Particulars: read-out: Code (IC50 for inhibition of autophosphorylation of KIT, pKIT MSD assay), Table 1, cell line not named for Table 1, b1056 names pKIT HMC1.1_V654A, tested form: TFA.

Consider `COc1cc(Nc2cc(N)nc(C(F)F)n2)ncc1-c1cnn(CC(C)(C)N)c1`, for which the IC50 was in the range of 10 to 40 nM.
